GIV-Gai inh = inhibitors of GIV GBA-motif binding to rat Galpha-i3; P08753; Galpha-i3/FITC-GIV peptide fluorescence polarization, 90 min; stronger effect = lower value; scaled: aluminum fluoride 0%, vehicle 100%; percent of control (FP), % (no concentration beside the values); actives 0.42% (n = 210,000); AID 1224905;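 active means replicate mean at 85% of control or lower, very high polarization wells dropped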;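 further: wells of about 15 µL received 100 nL stock; the first replicate is given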
HCMV UL50-53 inh = disrupts HCMV UL50-UL53 complex binding; HTRF UL50-UL53 interaction, normalized percent inhibition; inhibition, % (concentration not given with the values); hit rate 0.15% among 190,000; in the data active = inhibition above about 27%, passing the limit was not always enough
An asterisk follows results filed as active; . = not tested or not shown. Compounds with a hit are over-represented: about 0.43% of the library has one in this group of screens.

SMILES	GIV-Gai inh	HCMV UL50-53 inh
CCOC(=O)c1[nH]c(C)c(CN(Cc2ccc(OC)cc2)S(=O)(=O)c2ccc(C(C)C)cc2)c1C	104.2	.
COc1ccc(Cl)cc1NC(=O)C1=Cc2ccc(C)cc2OC=C1	101.1	-10.4
Cc1ccc2[nH]c3c(c2c1)CCc1cn[nH]c1-3	98.9	-16.5
Cc1ccc2[nH]c3c(c2c1)CCC1C3=NNC1c1ccco1 (stereo unspecified)	-65.7*	.
O=C(Nc1ccccc1Cc1ccccc1)c1ccc(Br)o1	.	-16.0
N#CCc1c(C#N)c(N)nc(N2CCN(S(=O)(=O)c3ccccc3)CC2)c1C#N	.	21.8
N#CCc1c(C#N)c(N)nc(N2CCc3ccccc32)c1C#N	.	35.2*
O=C(O)C(Cc1ccccc1)N=Cc1c(O)c2ccccc2oc1=O (stereo unspecified)	99.4	-17.7
O=C(O)C(Cc1ccc(O)cc1)N=Cc1cccc2ccccc12 (stereo unspecified)	.	94.7*
CC1(Cc2cn(CCC(=O)O)c3ccccc23)OCCO1	.	17.9
Nc1ccc2c3c(cccc13)C(=O)N(c1ccccc1)C2=O	-30.3*	-55.8
Cc1cccc(N2C(=O)c3cccc4c(N5CCNCC5)ccc(c34)C2=O)c1	87.8	-97.6
Cc1n[nH]c(C)c1N1C(=O)c2cccc3c(N)ccc(c23)C1=O	-42.3*	.
CN(C)c1ccc2c3c(cccc13)C(=O)N(c1ccccc1)C2=O	101.1	-23.0
O=C1c2cccc3c(N4CCNCC4)ccc(c23)C(=O)N1c1ccc(Cl)cc1	-91.0*	-72.8
Cc1n[nH]c(C)c1N1C(=O)c2cccc3c(Br)ccc(c23)C1=O	99.1	-134.6
Cc1ccc(N2CC(C(=O)N3CCC(c4nc(-c5ccccc5)no4)CC3)CC2=O)cc1 (stereo unspecified)	97.6	-11.9
CCCN1CCN(CC(O)c2ccc3c(c2)CCN3C(C)=O)CC1 (stereo unspecified)	93.9	-30.8
O=c1oc2cc(O)ccc2cc1-c1nnc(NCc2ccccc2)s1	-32.0*	.
O=C(Oc1ccc2cc(-c3ccc(F)cc3)c(=O)oc2c1)c1ccco1	108.2	-16.5
O=c1oc2cc(O)ccc2cc1-c1nnc(Nc2ccccc2F)s1	230.5	-39.0
COc1cccc(Nc2nnc(-c3cc4ccc(O)cc4oc3=O)s2)c1	-69.2*	.
O=c1oc2cc(O)ccc2cc1-c1nc2ccccc2s1	-78.8*	-60.4
CCOc1ccc2cc(-c3nc4ccccc4s3)c(=O)oc2c1	107.4	-15.5
O=C(Oc1ccc2cc(-c3nc4ccccc4s3)c(=O)oc2c1)c1ccco1	-41.9*	.
COc1ccc(Nc2nnc(-c3cc4c(ccc5ccccc54)oc3=O)s2)cc1	101.9	-24.7
NC(=O)COC(=O)c1cccc(C(F)(F)F)c1	.	-23.2
CN(C)c1ccc(NC(=O)NCC2CCCC(CNC(=O)Nc3ccc(N(C)C)cc3)C2)cc1 (stereo unspecified)	.	-4.8
CN1CCN(C(CNC(=O)c2cccc(Br)c2)c2ccc(N(C)C)cc2)CC1 (stereo unspecified)	95.2	-25.2
C=CCn1c(=O)[nH]c2nc3cc(N=CN(C)C)c(C)cc3nc2c1=O	-15.9*	.
C=CCn1c(=O)[nH]c2nc3cc(N=CN(C)C)ccc3nc2c1=O	103.7	-92.4
COc1ccccc1N(Cc1ccccc1O)C(=O)COc1ccccc1C	.	11.0
N#CC(C#N)=C(/C=C/c1ccccc1)C1CC1	.	-2.8
CN(C)c1ccc(/C=C/C(=C(C#N)C#N)C2CC2)cc1	-45.0*	-39.2
CC1CN(C)C(C)C/C1=N/O (stereo unspecified)	113.0	10.1
O=S(=O)(/N=C1\C=C2N(CCO)CCOC2(O)c2ccccc21)c1ccccc1 (stereo unspecified)	95.5	.
O=S(=O)(/N=C1\C=C2N(CCO)CCOC2(O)c2ccccc21)c1ccc(F)cc1 (stereo unspecified)	95.6	39.7*
CCCN1CC=C2C(C#N)=C(N)C(C#N)(C#N)C(c3ccc(F)cc3F)C2C1 (stereo unspecified)	44.1*	-39.6
CC(=O)N1CC=C2C(C#N)=C(N)C(C#N)(C#N)[C@H](c3ccc(F)cc3F)[C@H]2C1	.	-35.5
Cc1nc(-c2ccc(F)cc2)sc1-c1ccc(SCCN2CCOCC2)nn1	101.4	.
CCc1ccc(N2C(=O)NC(=O)/C(=C\c3ccc(OC(C)C(=O)O)cc3)C2=O)cc1 (stereo unspecified)	99.8	78.5*
CC(Oc1ccc(/C=C2\C(=O)NC(=O)N(c3ccc4c(c3)OCO4)C2=O)cc1)C(=O)O (stereo unspecified)	104.3	-0.9
CCOc1ccc(N2C(=O)NC(=O)/C(=C\c3ccc(Br)cc3)C2=O)cc1	109.7	1.2
Cc1cc(C)cc(N2C(=O)NC(=O)/C(=C\c3ccc(OC(C)C(=O)O)cc3)C2=O)c1 (stereo unspecified)	113.3	88.3*
C=CCOC(=O)C1=C(C)NC(SCC(=O)OCC)=C(C#N)C1c1cccs1 (stereo unspecified)	99.7	-22.5

For convenience, some entries already given:
SMILES	GIV-Gai inh	HCMV UL50-53 inh
CCc1ccc(N2C(=O)NC(=O)/C(=C\c3ccc(OC(C)C(=O)O)cc3)C2=O)cc1 (stereo unspecified)	99.8	78.5*
CC(Oc1ccc(/C=C2\C(=O)NC(=O)N(c3ccc4c(c3)OCO4)C2=O)cc1)C(=O)O (stereo unspecified)	104.3	-0.9

Grouped by structure, the entries above with two or more sulfur atoms (2)
SMILES	GIV-Gai inh	HCMV UL50-53 inh
Cc1nc(-c2ccc(F)cc2)sc1-c1ccc(SCCN2CCOCC2)nn1	101.4	.
C=CCOC(=O)C1=C(C)NC(SCC(=O)OCC)=C(C#N)C1c1cccs1 (stereo unspecified)	99.7	-22.5
